Key:
[1] = system: BT474 breast cancer cells; test: Colony formation assay in BT474 cells with ARID1A knockdown; assay type: cell-based, human; conditions: 25 nM AZD8055 or 2 ug/ml trastuzumab, 4 weeks
Procedure: The functional phenotypes of non-overlapping shARID1A vectors are indicated by the colony formation assay in 25 nM small molecule mTOR inhibitor AZD8055 or 2 ug/ml of trastuzumab (Herceptin). The cells were fixed, stained and photographed after 2 weeks (untreated) or 4 weeks (inhibitor treatment).

[2] = system: BT474 breast cancer cells; conditions: parental, naturally HER2 amplified; previously shown by Applicants; cited from earlier work

In the case of Trastuzumab, the “resistance on knockdown of ARID1A, colony formation” value [1] is listed as “conferred resistance”, the “resistance on knockdown of ARID1A, colony formation” value ([1]; listed as trastuzumab) is listed as “confers resistance” and the “sensitivity of BT474 cells” value [2] is listed as “highly sensitive”.

Reference: patent publication US20140287931A1, “METHODS AND COMPOSITIONS FOR PREDICTING RESISTANCE TO ANTICANCER TREATMENT” (Stichting het Nederlands Kanker Instituut - Antoni van …, priority 2011, published 2014)
